From ChEMBL document CHEMBL3045492, “Regioselective synthesis of novel 3-alkoxy (phenyl) thiophosphorylamido-2-(per-O-acetylglycosyl-1'-imino)thiazolidine-4-one derivatives from O-alkyl N4-glycosyl(thiosemicarbazido)phosphonothioates” (2009)
Activity calls are given as the source filed them.

Experiments:
Amaranthus retroflexus = test: Herbicidal activity against Amaranthus retroflexus assessed as growth inhibition at 1.5 kg/ha relative to control
Digitaria sanguinalis = test: Herbicidal activity against Digitaria sanguinalis (hairy crabgrass) assessed as growth inhibition at 1.5 kg/ha relative to control
Echinochloa crus-galli = test: Herbicidal activity against Echinochloa crus-galli (barnyard grass) assessed as growth inhibition at 1.5 kg/ha relative to control
[1] = system: Brassica rapa subsp. oleifera; test: Herbicidal activity against Brassica rapa subsp. oleifera assessed as growth inhibition at 1.5 kg/ha relative to control

Measured: growth inhibition (GI)

CCOP(=S)(NN1C(=O)CS/C1=N/[C@@H]1O[C@H](COC(C)=O)[C@@H](O[C@@H]2O[C@H](CC(C)=O)[C@H](OC(C)=O)[C@H](OC(C)=O)[C@H]2OC(C)=O)[C@H](OC(C)=O)[C@H]1OC(C)=O)OCC
active: all assays above

COP(=S)(NN1C(=O)CS/C1=N\[C@@H]1O[C@H](COC(C)=O)[C@H](OC(C)=O)[C@H](OC(C)=O)[C@H]1OC(C)=O)c1ccccc1 (stereo partly drawn)
active: all assays above

COP(=S)(NN1C(=O)CS/C1=N/[C@@H]1OC[C@@H](OC(C)=O)[C@H](OC(C)=O)[C@H]1OC(C)=O)c1ccccc1 (stereo partly drawn)
active: all assays above

CCOP(=S)(NN1C(=O)CS/C1=N/[C@@H]1O[C@H](COC(C)=O)[C@@H](O[C@H]2O[C@H](CC(C)=O)[C@@H](OC(C)=O)[C@H](OC(C)=O)[C@H]2OC(C)=O)[C@H](OC(C)=O)[C@H]1OC(C)=O)OCC
active: all assays above

CCCOP(=S)(NN1C(=O)CS/C1=N/[C@@H]1O[C@H](COC(C)=O)[C@@H](OC(C)=O)[C@H](OC(C)=O)[C@H]1OC(C)=O)c1ccccc1 (stereo partly drawn)
active: all assays above

CCOP(=S)(NN1C(=O)CS/C1=N/[C@@H]1OC[C@@H](OC(C)=O)[C@H](OC(C)=O)[C@H]1OC(C)=O)OCC
active: all assays above

CCOP(=S)(NN1C(=O)CS/C1=N/[C@@H]1OC[C@@H](OC(C)=O)[C@H](OC(C)=O)[C@H]1OC(C)=O)c1ccccc1 (stereo partly drawn)
active: all assays above

COP(=S)(NN1C(=O)CS/C1=N/[C@@H]1OC[C@@H](OC(C)=O)[C@H](OC(C)=O)[C@H]1OC(C)=O)OC
active: all assays above

CCOP(=S)(NN1C(=O)CS/C1=N\[C@@H]1O[C@H](COC(C)=O)[C@H](OC(C)=O)[C@H](OC(C)=O)[C@H]1OC(C)=O)OCC
active: all assays above

COP(=S)(NN1C(=O)CS/C1=N/[C@@H]1O[C@H](COC(C)=O)[C@@H](OC(C)=O)[C@H](OC(C)=O)[C@H]1OC(C)=O)c1ccccc1 (stereo partly drawn)
active: Amaranthus retroflexus | Digitaria sanguinalis | Echinochloa crus-galli

CCOP(=S)(NN1C(=O)CS/C1=N/[C@@H]1O[C@H](COC(C)=O)[C@@H](OC(C)=O)[C@H](OC(C)=O)[C@H]1OC(C)=O)OCC
active: all assays above
